Measured values reported in US20100297624A1, “Involvement of Lipid Kinase, and Signal Transduction Pathway Comprising Said Lipid Kinase, in Resistance to HER2-Targeting Therapy” (STICHTING HET NEDERLANDS KANKER INSTITUUT, priority 2007, published 2010).

Key:
[1] = test system: HER2 over-expressing metastatic breast cancer; experiment: Time to progression on Trastuzumab-based therapy in patient cohorts; assay type: in vivo, human
SK-BR3 cells = experiment: Proliferation of SKBR-3 cells cultured in Trastuzumab; assay type: cell-based, human; conditions: SK-BR3 cells expressing PIK3CA(wt) or PIK3CA(H1047R), FIG. 2b
Procedure: (§1) The human breast cancer cell lines BT-474 and SKBR-3 were purchased from the American Type Culture Collection (ATCC, Manassas) and were cultured in Dulbecco's Modified Eagle Medium (DMEM) supplemented with 8% heat-inactivated fetal calf serum, penicillin and streptomycin. For both the BT-474 and SKBR-3 cell lines, subclones were generated that ectopically express the murine ecotropic receptor. Ecotropic retroviral supernatants were produced by transfection of Phoenix packaging cells. Transfections were performed with the calcium phosphate precipitation technique. Viral supernatants were filtered through a 0.45 μm filter and infections were performed in the presence of 8 μg/ml polybrene (Sigma). Drug selections in BT-474 and SKBR-3 cells were performed with 2 μg/ml puromycin.
The retroviral vector expressing a constitutive active mutant of PIK3CA (110αCaaX) and the knock down vector for PTEN have been described previously (Kortlever et al. 2006. Nature Cell Biol. 8: 877-884). The PIK3CA (wt) and PIK3CA (H1047R) cDNAs were generated with PCR using the caPIK3CA as a template and cloned into the pMXiresGFP retroviral vector. Control infections were performed with a GFP expressing retrovirus or with a hairpin targeting GFP.

[2] = test system: HER2 over-expressing invasive breast cancers; conditions: in combination with chemotherapy; cited from earlier work
BT-474 cells = experiment: Proliferation of BT-474 cells cultured in Trastuzumab; assay type: cell-based, human; conditions: for sensitivity to Trastuzumab: FIG. 2a
Procedure: as §1
BT-474 cells were infected with retroviruses representing the complete NKi RNAi library as described previously (Berns et al. 2004. Nature 428: 431-437). Infected cells were selected with puroraycin (2.0 μg/ml) and plated into two populations at low density. […] During the screen, cells were trypsinized and replated, to remove small cell clumbs. After 4 weeks in culture the treated and untreated populations were collected. Genomic DNA was isolated with the use of DNAzol (Life Technologies). The shRNA inserts were amplified from genomic DNA by PCR using the primers pRS-T7-fw, 5′[…] […]-3′, containing a T7 RNA polymerase promoter sequence, and pRS-8-rev, 5′-[…]-3′. Purified PCR products were used for linear RNA amplification, and purified RNA probes were labeled with cyanine-3 (Cy3) or cyanine-5 (Cy5) fluorescent groups (Kreatech). […] Quantification of the resulting fluorescent images was performed with Imagene 5.6 (BioDiscovery), local background was subtracted, and the data were normalized and 2 log transformed.
The retroviral vector expressing a constitutive active mutant of PIK3CA (110αCaaX) and the knock down vector for PTEN have been described previously (Kortlever et al. 2006. Nature Cell Biol. 8: 877-884). […]
We have previously described the generation of a library of 24,000 shRNA retroviral vectors targeting some 8,000 human genes for suppression by RNA interference as well as a technology to rapidly screen such libraries, named siRNA bar code screening (Brummelkamp et al. 2006, Nat Chem Biol 2; 202-206; Berns et al. 2004. Nature 428: 431-437). In short, this technology-allows one to identify shRNAs that are enriched in a population based on the relative abundance of a ‘bar code” identifier (a unique 19-mer DNA sequence) in the vector, which is measured on a DNA micro-array that carries the 24,000 different bar code sequences. […] We combined the data from five independent Trastuzumab barcode screens and analyzed the relative abundance of the recovered shRNAs.

For “Trastuzumab: monoclonal antibody that targets the Human Epidermal growth factor Receptor 2 (HER2)”, the “time to progression, range” value ([1]; MD Anderson cohort) was 0.8-44.7 months, the “Average time to progression” value ([1]; MD Anderson cohort (n=21)) was 12.6 months and the “time to progression, range” value ([1]; NKI cohort) was 0.7-37.5 months. The “Average time to progression” value ([1]; NKI cohort (n=34)) was 11.3 months, the “HR (hazard ratio) for time to progression” value ([1]; PIK3CA mut vs PIK3CA wt, multivariate Cox regression) was 1.6 and the “Average time to progression” value ([1]; all 55 patients, Trastuzumab-based regimen) was 11.8 months. The “resistance to Trastuzumab” value (SK-BR3 cells) was “conferred resistance”, the “patients with striking initial responses” value [2] was “approximately 60%” and the “resistance to Trastuzumab” value (BT-474 cells; BT-474 cells expressing PIK3CA(wt) or PIK3CA(H1047R), data not shown) was “conferred resistance”. For the same substance, the “sensitivity to Trastuzumab” value (BT-474 cells; BT-474 cells expressing constitutively active caPIK3CA (p110αCaaX)) was “almost completely insensitive”, the “sensitivity to Trastuzumab” value (BT-474 cells; BT-474 cells with shRNA knockdown of PTEN) was “decreases sensitivity” and the “response of cells to Trastuzumab” value (BT-474 cells; parental BT-474 cells, FIG. 1a) was “reduction in proliferation rate”.
